The test concerns the target human NaV subtype, like NaV 1.7 (Homo sapiens, UniProt Q15858). The experiment in a line: E-VIPR optical membrane potential assay with electrical stimulation. The class given is cell-based. To be noted: read-out: Binned Activity Data (IC50); active against one or more sodium channels; Table 3 does not name the assay or NaV subtype.

The chains behind the UniProt entries cited, without tags or fusion partners.
UniProt Q15858, whole entry: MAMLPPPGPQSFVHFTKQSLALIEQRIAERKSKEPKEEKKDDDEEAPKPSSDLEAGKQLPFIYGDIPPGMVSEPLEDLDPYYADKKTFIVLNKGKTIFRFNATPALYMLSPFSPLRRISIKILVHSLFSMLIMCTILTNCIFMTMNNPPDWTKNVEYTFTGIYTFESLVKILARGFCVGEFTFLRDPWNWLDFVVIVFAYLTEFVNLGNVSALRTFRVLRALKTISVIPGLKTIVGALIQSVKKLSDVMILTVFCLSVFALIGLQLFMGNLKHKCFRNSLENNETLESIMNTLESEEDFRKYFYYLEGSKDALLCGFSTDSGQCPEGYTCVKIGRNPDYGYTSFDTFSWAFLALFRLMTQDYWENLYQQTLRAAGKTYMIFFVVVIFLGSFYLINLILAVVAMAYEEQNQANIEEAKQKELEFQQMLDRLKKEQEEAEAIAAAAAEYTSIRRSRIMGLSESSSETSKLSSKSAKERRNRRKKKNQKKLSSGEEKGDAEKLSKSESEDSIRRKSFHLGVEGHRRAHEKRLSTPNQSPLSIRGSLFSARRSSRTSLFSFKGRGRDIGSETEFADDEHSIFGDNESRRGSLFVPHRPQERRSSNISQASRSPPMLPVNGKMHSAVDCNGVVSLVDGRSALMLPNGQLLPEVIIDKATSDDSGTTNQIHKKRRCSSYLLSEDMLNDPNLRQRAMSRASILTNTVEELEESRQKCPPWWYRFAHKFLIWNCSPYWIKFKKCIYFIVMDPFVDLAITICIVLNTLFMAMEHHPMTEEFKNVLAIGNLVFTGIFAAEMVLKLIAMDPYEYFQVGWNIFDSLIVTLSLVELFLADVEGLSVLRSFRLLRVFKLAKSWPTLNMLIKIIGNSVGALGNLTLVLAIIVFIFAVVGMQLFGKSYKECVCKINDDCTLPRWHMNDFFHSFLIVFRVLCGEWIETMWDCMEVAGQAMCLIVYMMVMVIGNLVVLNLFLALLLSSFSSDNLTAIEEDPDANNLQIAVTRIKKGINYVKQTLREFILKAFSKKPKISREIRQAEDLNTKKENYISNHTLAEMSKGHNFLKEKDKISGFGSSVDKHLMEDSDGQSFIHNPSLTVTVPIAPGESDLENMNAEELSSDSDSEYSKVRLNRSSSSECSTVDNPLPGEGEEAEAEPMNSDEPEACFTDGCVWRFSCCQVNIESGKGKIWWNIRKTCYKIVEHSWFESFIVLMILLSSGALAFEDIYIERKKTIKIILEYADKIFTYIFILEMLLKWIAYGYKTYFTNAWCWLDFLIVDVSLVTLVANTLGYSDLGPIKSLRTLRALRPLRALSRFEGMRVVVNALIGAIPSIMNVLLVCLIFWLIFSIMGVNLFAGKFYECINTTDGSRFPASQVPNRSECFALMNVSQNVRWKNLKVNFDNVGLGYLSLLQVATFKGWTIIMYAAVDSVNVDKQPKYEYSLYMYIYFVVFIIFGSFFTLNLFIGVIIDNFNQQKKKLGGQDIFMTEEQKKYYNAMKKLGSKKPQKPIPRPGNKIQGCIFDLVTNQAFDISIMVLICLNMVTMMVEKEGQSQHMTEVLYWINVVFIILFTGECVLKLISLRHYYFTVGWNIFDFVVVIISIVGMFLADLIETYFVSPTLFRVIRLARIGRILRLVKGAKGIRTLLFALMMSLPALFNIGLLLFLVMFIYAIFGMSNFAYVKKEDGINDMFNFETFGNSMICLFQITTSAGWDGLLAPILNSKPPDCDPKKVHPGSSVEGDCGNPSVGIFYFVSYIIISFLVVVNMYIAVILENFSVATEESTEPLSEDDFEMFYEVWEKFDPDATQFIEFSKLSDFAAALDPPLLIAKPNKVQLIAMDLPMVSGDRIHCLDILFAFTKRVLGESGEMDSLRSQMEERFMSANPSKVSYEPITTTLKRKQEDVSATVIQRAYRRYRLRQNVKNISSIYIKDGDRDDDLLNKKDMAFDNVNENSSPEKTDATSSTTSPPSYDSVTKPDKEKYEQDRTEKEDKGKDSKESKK

Each structure is given as a SMILES string.

Consider `CCC(=O)c1ccc2n1CCN(C)C21CCN(C(=O)c2ccc(N3CCCCC3)cc2)CC1`, for which the IC50 is less than 2 µM. As for `CC(C)CS(=O)(=O)c1ccc(C(=O)N2CCC3(CC2)c2ccc(C(=O)C(C)(C)C)n2CCN3C)cc1`, the IC50 is less than 2 µM.

A word on the IC50: it is the midpoint of a concentration-inhibition curve.

Source of the values: US8916565B2, “Pyrrolopyrazine-spirocyclic piperidine amides as modulators of ion channels” (priority 2011, dated 2014).
